For 81 compounds, relative growth results are on record in published antibiotic growth screens (doi:10.1038/s41589-023-01349-8).

SMILES strings stand for the structures. Some of the results follow.

The test system of this test is A. baumannii ATCC 17978. The test can be described thus: relative growth (fraction of control); higher = less inhibition. The note with it: 50 µM.
`Cc1ccc(NC2C(=O)NC(=O)N2N)cc1` (stereo unspecified) came in with a relative growth of 0.875. The value for `COCC(=O)N(C)C[C@@H]1Oc2cc(C#CCC3CCCC3)ccc2S(=O)(=O)N([C@@H](C)CO)C[C@@H]1C` was 0.673; that for `COc1c(-c2ccccc2)oc2cc(O)cc(O)c2c1=O` was 0.965. Under `COCCCNC(=O)[C@@]1(Sc2ccc(C)cc2)CC(=O)N(C2CCCCC2)[C@@H]1c1ccc(CO)cc1I` stands 0.783; under `Cl.c1ccc2c(c1)CCCC2C1=NCCN1` (stereo unspecified), 0.962. Under `COCCOC(=O)N1C(=O)[C@@]2(c3cc(C#CCCO)ccc31)[C@H](c1ccccc1OCCO)N1[C@H](c3ccccc3)[C@H](c3ccccc3)OC(=O)[C@H]1[C@@H]2C(=O)N1CCc2cc(OC)c(OC)cc2C1` stands 1.18; under `Cc1[nH]c(=O)[nH]c(=O)c1S(=O)(=O)N1CCN(c2ccccc2)CC1`, 0.982; under `CN(C)C(=O)C[C@H]1C=C[C@@H](NC(=O)C2CC2)[C@H](CO)O1`, 1.13.

Turning to `O=C(CN1CCOCC1)NCC[C@@H]1CC[C@H](NS(=O)(=O)c2ccc(Cl)cc2)[C@H](CO)O1`, the relative growth was found to be 1.1.

With `O=C(N/N=C/[C@H](O)[C@H](O)[C@@H](O)[C@@H](O)CO)c1ccccn1`, the relative growth was found to be 1.03. Turning to `COc1cccc(S(=O)(=O)Nc2ccc3c(c2)OC[C@@H](C)N(C(=O)Cc2cccnc2)C[C@H](C)[C@@H](OC)CN(C)C3=O)c1`, the relative growth is 1.01. The compound `Cn1cnc(S(=O)(=O)N[C@@H]2C=C[C@@H](CC(=O)NCC3CC3)O[C@@H]2CO)c1` yielded a relative growth of 0.969. For `CS(=O)(=O)N1CC(=O)Nc2ccccc21`, the relative growth turned out to be 1.1. `O=C(CNC(=O)c1ccc(Cl)cc1)NO` came in with a relative growth of 0.96. Consider `CC(C)(N)c1ccccc1Br`, for which the relative growth came out at 1.01. With `Cc1nc(-c2sc3ccc(Cl)cc3c2C)cs1`, the relative growth turned out to be 1.02. The value for `COc1ccc([C@H]([C@H](Cc2ccccc2)OC(C)=O)N(CC#C[C@@H](O)c2ccccc2)[C@@H](Cc2ccccc2)C(OC)OC)cc1` was 1.07. The value for `Cl.NC(Cc1ccc(O)cc1)C(=O)O` (stereo unspecified) was 1.16. The value for `Cl.NCCS` was 1.11.

In the case of `CN(CP(=O)(O)CN1CCOCC1)S(C)(=O)=O`, the relative growth came to 0.975. The value for `C[N+](C)(C)CCO.Cn1c(=O)c2[n-]cnc2n(C)c1=O` was 0.873. In turn, `CC(=O)Oc1cccc(O)c1` displayed a relative growth of 1.04.

As for `Cc1ccc(S(=O)(=O)N2C[C@@H](O)COC[C@@H]3O[C@H](CC(=O)NCc4ccc5c(c4)OCO5)CC[C@H]32)cc1`, the relative growth was found to be 0.893. The compound `Cc1ccc(S(=O)(=O)N[C@@H]2CC[C@@H](CC(=O)N3CCC(Cc4ccccc4)CC3)O[C@@H]2CO)cc1` had a relative growth of 0.709. Compound `COCCOC(=O)N1C(=O)[C@@]2(c3ccccc31)[C@H](c1ccc(OCCO)cc1)N1[C@H](c3ccccc3)[C@H](c3ccccc3)OC(=O)[C@H]1[C@@H]2C(=O)N1CCc2cc(OC)c(OC)cc2C1` had a relative growth of 0.908. `C=CC[C@H](CC(=O)N(CCO)Cc1ccccc1)C(=O)N[C@H](COC(=O)[C@@H](CC=C)Cc1ccc(F)cc1)C(C)(C)C` yielded a relative growth of 1.07. The value for `O=C1C[C@]2(c3ccc([N+](=O)[O-])cc3)C(=O)N(CCN3CCOCC3)c3cc(CO)ccc3[C@H]2N1C1CCCCC1` was 1.11; that for `C=CCOC(=O)[C@H]1[C@@H]2C(=O)O[C@@H](c3ccccc3)[C@@H](c3ccccc3)N2[C@@H](c2ccc(OCCOC(=O)[C@H]3C[C@H]4C(=O)N[C@@H](CCCCNC(C)=O)C(=O)N4[C@H]3c3cccc(OCCO)c3)cc2)[C@]12C(=O)Nc1ccc(I)cc12` was 1.34.

The compound `C=CCn1c(O)c(C#N)c(C)cc1=O` returned a relative growth of 0.969.

For `NC1=NC(=O)C[C@H](Cc2ccccc2)N1`, the relative growth was determined as 1.05. Under `CC(C)NC(=O)N(C)C[C@H]1OCc2cn(nn2)CCCC(=O)N([C@@H](C)CO)C[C@@H]1C` stands 0.988; under `C=C(C)CC1(N[C@H](C)c2ccccc2)CCCCC1`, 0.823; under `CCS(=O)(=O)NCCc1csc(C)n1`, 1.12. Take `CN1CCN(C(=O)C[C@@H]2CC[C@H]3[C@@H](COC[C@@H](O)CN3C(=O)Nc3cc(Cl)cc(Cl)c3)O2)CC1`: the relative growth is 0.807. The compound `C=CCCCCCCCCCCCC(O)CC(O)CO` (stereo unspecified) registered a relative growth of 1.25. The value for `COc1ccccc1CNC(=O)C[C@H]1C[C@@H]2c3cc(NC(=O)NC4CCCC4)ccc3O[C@@H]2[C@@H](CO)O1` was 0.951; that for `CC(C)NC[C@@H](O)COc1cccc2ccccc12.Cl` was 0.874; that for `CCCCn1c(SCC(N)=O)nc2c1c(=O)n(C)c(=O)n2C` was 1.13. Under `COc1cccc(C#Cc2ccc3c(c2)O[C@@H](CN(C)C(C)=O)[C@@H](C)CN([C@@H](C)CO)S3(=O)=O)c1` stands 0.977. Turning to `COc1cccc(S(=O)(=O)N[C@@H]2CC[C@@H](CCn3cc(-c4ccccc4OC)nn3)O[C@H]2CO)c1`, the relative growth came out at 0.872. Under `Cn1c(=O)c2c(ncn2C[C@@H](O)COc2ccccc2)n(C)c1=O` stands 1.17; under `C[C@@H]1CN([C@@H](C)CO)C(=O)c2cc(C#CCN(C)C)cnc2O[C@@H]1CN(C)C(=O)CN1CCOCC1`, 1.15. The value for `CC1(C)OC(=O)NC1=O` was 1.16; that for `O=C(C[C@H]1CC[C@@H]2[C@H](COC[C@H](O)CN2S(=O)(=O)c2ccc(F)cc2)O1)N[C@@H]1CCN(Cc2ccccc2)C1` was 1.15. Under `CC1=NCCN1C(=O)[C@@H](N)CC(C)C` stands 1.01.

Compound `Cc1ccccc1NC(=N)N=C(N)N` showed a relative growth of 0.927. With `CCC1OC(=O)[C@H](C)C(=O)[C@H](C)[C@@H](OC2O[C@H](C)C[C@H](N(C)C)[C@H]2O)[C@](C)(OC)C[C@@H](C)C(=O)[C@@H](C)[C@@H]2N(CCCCn3cnc(-c4cccnc4)c3)C(=O)O[C@]12C` (stereo partly specified), the relative growth came to 0.146. Under `COc1ccc(NS(=O)(=O)c2ccc(N)cc2)nn1` stands 1.05; under `Nc1ccc(C(=O)NCC(=O)O)cc1`, 1.15; under `C=C(NC(=O)C(=C)NC(=O)c1csc(C2=NC3c4csc(n4)C4NC(=O)c5csc(n5)C(C(C)(O)C(C)O)NC(=O)C5CSC(=N5)/C(=C\C)NC(=O)C(C(C)O)NC(=O)c5csc(n5)C3(CC2)NC(=O)C(C)NC(=O)C(=C)NC(=O)C(C)NC(=O)C(C(C)CC)NC2C=Cc3c(C(C)O)cc(nc3C2O)C(=O)OC4C)n1)C(N)=O` (stereo unspecified), 0.989. Compound `O=C(C[C@@H]1CC[C@@H](NC(=O)CN2CCOCC2)[C@@H](CO)O1)NC1CCC1` had a relative growth of 1.28.

`Nc1ncnc2c1ncn2[C@H]1O[C@@H](CO)[C@H](O)[C@@H]1O` returned a relative growth of 1.09. Under `CC(C)C[C@@H](NS(=O)(=O)c1ccc2[nH]c(=O)c(=O)[nH]c2c1)C(=O)O` stands 1.16. Under `Cl.NCCCC(=O)O` [gamma-AMINOBUTYRIC ACID HYDROCHLORIDE] stands 0.953; under `COCC#Cc1ccc2c(c1)O[C@@H](CN(C)C(=O)C1CCCCC1)[C@@H](C)CN([C@@H](C)CO)S2(=O)=O`, 0.828; under `O=C(C[C@H]1C=C[C@H](NC(=O)CN2CCOCC2)[C@@H](CO)O1)NCCc1ccccc1`, 1.07. The value for `OCCN1CCN(CCCN2c3ccccc3Sc3ccc(Cl)cc32)CC1` was 0.804; that for `NC(=O)CCN1C(=O)c2ccccc2C1=O` was 1.06; that for `C[C@@H]1CN([C@@H](C)CO)S(=O)(=O)c2ccc(C#C[C@@H](C)O)cc2O[C@H]1CN(C)C(=O)CN(C)C` was 1.04. `COC(=O)C(CC#Cc1ccc2c(c1)[C@]1(C(=O)N2)[C@H](c2ccccc2OCCO)N2[C@H](c3ccccc3)[C@H](c3ccccc3)OC(=O)[C@H]2[C@@H]1C(=O)Nc1nc2ccccc2s1)C(=O)OC`: the relative growth is 1.03. Under `Cc1cc(=O)n(CCO)c(=O)[nH]1` stands 0.923; under `Nc1ccc(S(=O)(=O)c2ccc(N)cc2)cc1`, 1.04.

Turning to `CN(C)C(=O)C[C@@H]1CC[C@@H]2[C@H](COC[C@@H](O)CN2S(=O)(=O)c2ccccc2)O1`, the relative growth came to 1.06. The value for `CO[C@@H]1CN(C)C(=O)c2cc(NS(C)(=O)=O)ccc2OC[C@H](C)N(C(=O)C2CCOCC2)C[C@@H]1C` was 1.19. The value for `O=C(O)[C@H]1CCCC[C@@H]1C(=O)N1CCOCC1` was 1.01. The value for `OC[C@H]1O[C@@H](Oc2ccc(O)cc2)[C@H](O)[C@@H](O)[C@@H]1O` was 0.987; that for `COc1cc(/C=C/C(=O)O)cc(OC)c1OC` was 0.963; that for `C=CCNC(=O)[C@@H]1[C@H]2C(=O)O[C@H](c3ccccc3)[C@H](c3ccccc3)N2[C@H](c2ccccc2OCCO)[C@@]12C(=O)Nc1ccc(C#CC3=CCCCC3)cc12` was 1.12. `CCCCC(=O)N(Cc1ccc(-c2ccccc2-c2nn[nH]n2)cc1)[C@H](C(=O)O)C(C)C` gave a relative growth of 1.07. Take `C[C@H]1CN([C@@H](C)CO)S(=O)(=O)c2ccc(/C=C/c3ccccc3)cc2O[C@@H]1CN(C)C(=O)CN1CCOCC1`: the relative growth turned out to be 0.864.

The compound `C[C@@H]1CN([C@@H](C)CO)S(=O)(=O)c2ccc(Br)cc2O[C@H]1CN(C)S(=O)(=O)c1ccccc1` returned a relative growth of 0.911. The compound `O=C(C[C@@H]1CC[C@@H](NS(=O)(=O)c2ccc(F)cc2)[C@@H](CO)O1)N1CCC(Cc2ccccc2)CC1` had a relative growth of 0.829.

In the case of `O=C(C[C@H]1C[C@H]2c3cc(NC(=O)c4cccnc4)ccc3O[C@H]2[C@@H](CO)O1)NCc1cc(F)ccc1F`, the relative growth was 0.974.

In turn, `O=C1c2ccccc2[C@@]2(Cc3ccccc3N(CCN3CCOCC3)C2=O)[C@H](c2ccc(CO)cc2)N1Cc1ccccc1Cl` showed a relative growth of 0.952.

Compound `Nc1ccc(C(=O)N2CCOCC2)cc1` yielded a relative growth of 1.12. Under `O=C(CN1CCOCC1)N[C@@H]1CC[C@@H](CCNS(=O)(=O)c2ccccc2F)O[C@H]1CO` stands 1.28. Under `O=C(C[C@H]1CC[C@H]2[C@@H](COC[C@@H](O)CN2Cc2ccccc2F)O1)N[C@H]1CCN(Cc2ccccc2)C1` stands 0.936; under `CO[C@H]1CN(C)C(=O)c2cc(NS(C)(=O)=O)ccc2OC[C@H](C)N(C(=O)c2ccc3c(c2)OCO3)C[C@@H]1C`, 1.16; under `Cc1ccc(-c2cnc(-c3ccc(Br)cc3)o2)cc1`, 1.07.

As for `C[C@H]1[C@H]([Si](C)(C)F)[C@@H](CCO)O[C@]12C(=O)N(Cc1cccc(N3C(=O)COc4ccccc43)c1)c1ccccc12`, the relative growth stood at 0.89. The value for `CN(C)CCOC(c1ccc(Cl)cc1)c1ccccn1.O=C(O)/C=C\C(=O)O` (stereo unspecified) was 0.849.
